From patent publication US20260132128A1, “COMPOUND FOR RECOVERING P53 MUTATION FUNCTION AND USE THEREOF” (SHENZHEN ZHONGGE BIOLOGICAL TECHNOLOGY CO., LTD., priority 2022, published 2026)
Where two headings read alike, the source gives them in different places. Marks after values point to notes of the source that are not given here.

Protein sequences, listed by entry. Tags and fused reporters are not part of them.
UniProt P08684, whole entry: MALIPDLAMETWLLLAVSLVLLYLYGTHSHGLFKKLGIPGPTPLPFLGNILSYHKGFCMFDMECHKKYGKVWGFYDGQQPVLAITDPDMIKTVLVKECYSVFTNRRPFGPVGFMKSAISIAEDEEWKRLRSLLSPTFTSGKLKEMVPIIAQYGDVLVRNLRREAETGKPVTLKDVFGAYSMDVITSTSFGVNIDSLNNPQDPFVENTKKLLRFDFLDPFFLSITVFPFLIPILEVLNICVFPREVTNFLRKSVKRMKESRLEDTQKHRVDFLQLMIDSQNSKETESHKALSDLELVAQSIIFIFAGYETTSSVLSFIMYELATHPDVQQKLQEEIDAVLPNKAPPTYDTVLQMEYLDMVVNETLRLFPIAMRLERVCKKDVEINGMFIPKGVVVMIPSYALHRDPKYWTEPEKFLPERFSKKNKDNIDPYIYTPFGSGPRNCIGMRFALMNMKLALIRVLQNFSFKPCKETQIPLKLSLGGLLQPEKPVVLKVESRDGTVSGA

What was measured:
p53 Y220C [1] = biological target: p53 Y220C (Homo sapiens, UniProt P04637, P309S/R273H/Y220C); test: DNA binding test (HTRF): binding of P53Y220C protein to DNA; type: biochemical; settings: HTRF, activation of p53 Y220C (aa 94-312) binding to biotin DNA
Method: (§1) In order to detect the ability of the aforementioned compounds to increase the binding of P53Y220C protein to DNA, the binding activity of p53 Y220C was measured by homogeneous time-resolved fluorescence (HTRF). Recombinant His-tagged p53 Y220C for HTRF measurement was expressed in bacteria E. coli. The recombinant protein was a truncated mutant containing only amino acids 94-312 of p53, and its sequence was […] […] VEGNLR VEYLDDRN TFRh[…] […]. The sense strand of the DNA double strand was 5′-[…]-3′, with a biotin tag at the 5′ end for activity assay, and the antisense strand was 5′-[…]-3′ 40 mL of assay buffer (20 mM Tris HCL, pH 7.5, 50 mM NaCl, 2 mM MgCl2, 0.02% Tween 20, 0.01% BSA, 1 mM DTT) was prepared. 10 mM compound was prepared and subjected to 3-fold dilution to obtain 10 dose gradient dilutions of the compound. 20 nL of the compound was added to a 384-well assay plate (PerkinElmer 6007299) using an Echo 655 Liquid Handler. P53Y220C protein was dissolved in assay buffer to reach a final concentration of 150 nM, and 5 μL thereof was added to each well, and incubated at room temperature for 5 min. DNA was dissolved in assay buffer to reach a final concentration of 150 nM, and 5 μL thereof was added to each well, and incubated at room temperature for 15 min. Anti 6HIS-XL665 (Cisbio 61HISXLB) was dissolved in assay buffer to reach a final concentration of 20 nM, and 5 μL thereof was added to each well. Streptavidin-Eu cryptate (Cisbio 610SAKLA) was dissolved in assay buffer to reach a final concentration of 0.625 nM, and 5 μL thereof was added to each well, and incubated at 27° C. for 1 hour. The plate was then read for signal values on an Envision (PerkinElmer 2105-0020) plate reader at 665 nm and 615 nm, respectively. GraphPad 9.0 was used to fit activation rate and compound concentration into a nonlinear regression curve (dose response-variable slope) to calculate EC50, and EC50 could be defined as the concentration required for the compound to achieve 50% effect. Activation rate={(A-C)/(C)}*100%, A=(signal value at 665 nm/signal value at 615 nm); C=average signal of negative control (wherein, negative control referred to 0.1% DMSO).

p53 Y220C [2] = biological target: p53 Y220C (Homo sapiens, UniProt P04637, Y220C); test: as above; type: biochemical; settings: multiple ratio of EC50 of the compound to the reference compound, DNA binding test
Method: as §1

NUGC-3 cells = test: NUGC-3 cell proliferation assay (CTG); settings: for Compound GI50 (nM)/Reference compound GI50 (nM): multiple ratio of GI50 of the compound to the reference compound; for GI50: 6 days, CTG
Method: In order to detect the inhibitory effect of the aforementioned compounds on the proliferation ability of NUGC-3 cells, 250 NUGC-3 cells (Nanjing Cobioer Biosciences Co., Ltd., CBP60492) were seeded into a 384-well plate (Corning 3765), 35 μL per well, and incubated overnight in a constant temperature incubator at 37° C. and 5% CO2. Then, 40 nL of the compound was added to the 384-well plate using an Echo 655 Liquid Handler, with a maximum final concentration of 10 μM, 1:3 serial dilutions, and a total of 10 doses. The culture was performed at 37° C. and 5% CO2 for 6 days. The plate was taken out from the incubator and equilibrated at room temperature for 10 minutes. 20 μL of CTG (Promage G7572) was added to each well of the plate according to the platemap. The plate was centrifuged at 1000 rpm for 1 min. The lysis of cells was induced by mixing on a shaker for 2 min. The plate was centrifuged at 1000 rpm for 1 min. Incubation was performed at room temperature for 10 min to stabilize luminescence signals. Luminescence values were recorded by Envision (PerkinElmer 2105-0020). GraphPad 9.0 was used to fit the inhibition rate and compound concentration into a nonlinear regression curve (dose response-variable slope) to calculate GI50, inhibition rate={1−(A−B)/(C−B)}*100%, A=signal value of compound; B=average signal of blank control; C=average signal of negative control (wherein negative control was 0.1% DMSO).

[3] = Pharmacokinetic test in mice; settings: mouse
Method: ICR male mice (15 to 35 g, 5 to 10 weeks old, Shanghai Xipuer-Bikai Experimental Animal Co., Ltd.) were selected as test animals in this study. The LC-MS/MS method was used to quantitatively determine drug concentrations in the plasma of mice at different time points after intravenous injection or oral gavage administration of the test compound to evaluate the pharmacokinetic characteristics of the compound in mice. The clear solution of the test compound was injected into ICR mice via the tail vein (without fasting, solvent: 40% hydroxypropyl-β-cyclodextrin) and administered to ICR mice by oral gavage (fasting for 10 to 14 hours, free drinking water, solvent: 0.2% hydroxypropyl cellulose, 0.5% Tween 80). For intravenous administration, blood was collected from the submandibular venous plexus at 0.033, 0.083, 0.25, 0.5, 1, 2, 4, 8, and 24 hours after administration, placed in an anticoagulant tube with EDTA-K2 (Jiangsu Kangjian Medical Supplies Co., Ltd.), mixed, and centrifuged at 2-8° C., 6800 g for 6 minutes to obtain plasma; for oral gavage administration, blood was collected from the submandibular venous plexus at 0.083, 0.25, 0.5, 1, 2, 4, 6, 8, and 24 hours after administration, placed in an anticoagulant tube with EDTA-K2 (Jiangsu Kangjian Medical Supplies Co., Ltd.), mixed, and centrifuged at 2-8° C., 6800 g for 6 minutes to obtain plasma. The blood drug concentration was determined by LC-MS/MS, and the relevant pharmacokinetic parameters were calculated by the non-compartmental linear logarithmic trapezoidal method using Phoenix WinNonlin™ Version 7.0 (Pharsight, USA) pharmacokinetic software.

CYP 3A4 = CYP 3A4 (Homo sapiens, UniProt P08684); test: CYP 3A4 time-dependent inhibition test; settings: midazolam substrate
BxPC-3 cells = test: BxPC-3 cell proliferation test (CTG); settings: 6 days
Method: To detect the inhibitory effects of the aforementioned compounds on the proliferation ability of BxPC-3 cells, 125 BxPC-3 cells (ATCC®CRL-1687) were seeded into a 384-well plate (Corning 3765), 35 μL per well, and placed in a constant temperature incubator at 37° C. and 5% CO2 overnight. Then, 40 nL of the compound was added to the 384-well plate using an Echo 655 Liquid Handler, with a maximum final concentration of 10 μM, 1:3 serial dilution, and in a total of 10 doses. Incubation was performed at 37° C., 5% CO2 for 6 days. The plate was taken out from the incubator and equilibrated at room temperature for 10 minutes. 20 μL of CTG (Promage G7572) was added to each well of the plate according to the platemap. The plate was centrifuged at 1000 rpm for 1 minute. The lysis of cells was induced by mixing on a shaker for 2 minutes. The plate was centrifuged at 1000 rpm for 1 minute. Incubation was performed at room temperature for 10 minutes to stabilize luminescence signals. Luminescence values were recorded by Envision (PerkinElmer 2105-0020). GraphPad 9.0 was used to fit the inhibition rate and compound concentration into a nonlinear regression curve (dose response-variable slope) to calculate GI50, inhibition rate={1−(A−B)/(C−B)}*100%, A=signal value of compound; B=average signal of blank control; C=average signal of negative control (wherein the negative control was 0.1% DMSO).

Row | SMILES | EC50 (p53 Y220C [1]) | Compound EC50 (nM)/Reference compound EC50 (nM) (p53 Y220C [2]) | Compound GI50 (nM)/Reference compound GI50 (nM) (NUGC-3 cells) | GI50 (NUGC-3 cells) | CL ([3]; iv 2.5 mpk) | AUC ([3]; po 25 mpk, plasma) | Cmax ([3]; po 25 mpk, plasma) | IC50 (CYP 3A4; read-out: IC50 (μM) 0 min, 0 min pre-incubation) | IC50 (CYP 3A4; read-out: IC50 (μM) 30 min, with NADPH, 30 min pre-incubation with NADPH) | IC50 (CYP 3A4; read-out: IC50 (μM) 30 min, without NADPH, 30 min pre-incubation without NADPH) | GI50 (BxPC-3 cells)
1 | COc1cc(S2(=O)=NCCCC2)ccc1NCC#Cc1cc2c(NC3CCN(C)CC3F)cccc2n1CC(F)(F)F (single isomer, unassigned) [Compound 37e] | < 100 nM | B (B: EC50 of the reference compound<EC50 of the compound≤3.0*EC50 of the reference compound) | B (B: GI50 of the reference compound < GI50 of the compound ≤ 3.0 * GI50 of the reference compound) |  |  |  |  |  |  |  | 
2 | COc1cc(S2(=O)=NCCCC2)ccc1NCC#Cc1cc2c(NC3CCN(C)CC3F)cccc2n1CC(F)(F)F (single isomer, unassigned) [Compound 37g] | < 100 nM | A (A: EC50 of the compound≤EC50 of the reference compound) | A (A: GI50 of the compound ≤ GI50 of the reference compound) |  |  |  |  |  |  |  | 
3 | COc1cc(S2(=O)=NCCCC2)ccc1NCC#Cc1cc2c(NC3CCN(C)CC3F)cccc2n1CC(F)(F)F (single isomer, unassigned) [Compound 37h] | < 100 nM | B (B: EC50 of the reference compound<EC50 of the compound≤3.0*EC50 of the reference compound) | C (C: GI50 of the compound ≥ 3 * GI50 of the reference compound) |  |  |  |  |  |  |  | 
4 | COc1cc(S2(=O)=NCCCC2)ccc1NCC#Cc1cc2c(NC3CCN(C)CC3F)cccc2n1CC(F)(F)F (single isomer, unassigned) [Compound 37f] | < 100 nM | B (B: EC50 of the reference compound<EC50 of the compound≤3.0*EC50 of the reference compound) | C (C: GI50 of the compound ≥ 3 * GI50 of the reference compound) |  |  |  |  |  |  |  | 
5 | CNC(=O)c1ccc(NCC#Cc2nc3c(NC4CCC(N5CCOC6(CC6)C5)CC4)cccn3c2CC(F)(F)F)c(OC)c1 (single isomer, unassigned) [Compound 31a] | 500 to 1000 nM | C (C: EC50 of the compound≥3*EC50 of the reference compound) | C (C: GI50 of the compound ≥ 3 * GI50 of the reference compound) | > 5000 nM |  |  |  |  |  |  | 
6 | CNC(=O)c1ccc(NCC#Cc2nc3c(NC4CCC(N5CCOC6(CC6)C5)CC4)cccn3c2CC(F)(F)F)c(OC)c1 (single isomer, unassigned) [Compound 32a] | 100 to 500 nM | C (C: EC50 of the compound≥3*EC50 of the reference compound) | C (C: GI50 of the compound ≥ 3 * GI50 of the reference compound) | > 5000 nM |  |  |  |  |  |  | 
7 | CNC(=O)c1ccc(NCC#Cc2nc3c(NC4CCC(N5CCOCC5)CC4F)cccn3c2CC(F)(F)F)c(OC)c1 (stereo not drawn) | < 100 nM | B (B: EC50 of the reference compound<EC50 of the compound≤3.0*EC50 of the reference compound) | B (B: GI50 of the reference compound < GI50 of the compound ≤ 3.0 * GI50 of the reference compound) | < 1000 nM | 13 mL/min/kg | 43085 ng·h/mL | 11831 ng/mL | 3.87 µM | 1.99 µM | 7.06 µM | < 1000 nM
8 | COc1cc(S(C)(=O)=O)ccc1NCC#Cc1nc2c(NC3CCC(N4CC5(COC5)C4)CC3F)cccn2c1CC(F)(F)F (stereo not drawn) | < 100 nM | A (A: EC50 of the compound≤EC50 of the reference compound) | B (B: GI50 of the reference compound < GI50 of the compound ≤ 3.0 * GI50 of the reference compound) | < 1000 nM |  |  |  |  |  |  | < 1000 nM
